# Earlier results in US9487470B2, “4-((substituted phenyl) difluoromethyl) phenoxy carboxylic acid derivative, and preparation method and uses thereof” (Zhejiang Hisun Pharmaceutical Co., Ltd., priority 2012, dated 2016).
# Details: reports of U.S. Pat. No. 4,058,552; Practical Pharmacy and Clinical Remedies, 2005, 8, 35-36; WO02/39983; cited from earlier work
substance,measurement,value
fenofibrate [reference compound],bioavailability,poor bioavailability
